Test results as given in publication PMC9973354, “Pseudomonas aeruginosa FpvB Is a High-Affinity Transporter for Xenosiderophores Ferrichrome and Ferrioxamine B” (mBio, 2022).

Amino acid sequences for entries named in this document (tags omitted). Residues count along the entry.
UniProt A0A0H2ZFZ5, 23-802 R648C: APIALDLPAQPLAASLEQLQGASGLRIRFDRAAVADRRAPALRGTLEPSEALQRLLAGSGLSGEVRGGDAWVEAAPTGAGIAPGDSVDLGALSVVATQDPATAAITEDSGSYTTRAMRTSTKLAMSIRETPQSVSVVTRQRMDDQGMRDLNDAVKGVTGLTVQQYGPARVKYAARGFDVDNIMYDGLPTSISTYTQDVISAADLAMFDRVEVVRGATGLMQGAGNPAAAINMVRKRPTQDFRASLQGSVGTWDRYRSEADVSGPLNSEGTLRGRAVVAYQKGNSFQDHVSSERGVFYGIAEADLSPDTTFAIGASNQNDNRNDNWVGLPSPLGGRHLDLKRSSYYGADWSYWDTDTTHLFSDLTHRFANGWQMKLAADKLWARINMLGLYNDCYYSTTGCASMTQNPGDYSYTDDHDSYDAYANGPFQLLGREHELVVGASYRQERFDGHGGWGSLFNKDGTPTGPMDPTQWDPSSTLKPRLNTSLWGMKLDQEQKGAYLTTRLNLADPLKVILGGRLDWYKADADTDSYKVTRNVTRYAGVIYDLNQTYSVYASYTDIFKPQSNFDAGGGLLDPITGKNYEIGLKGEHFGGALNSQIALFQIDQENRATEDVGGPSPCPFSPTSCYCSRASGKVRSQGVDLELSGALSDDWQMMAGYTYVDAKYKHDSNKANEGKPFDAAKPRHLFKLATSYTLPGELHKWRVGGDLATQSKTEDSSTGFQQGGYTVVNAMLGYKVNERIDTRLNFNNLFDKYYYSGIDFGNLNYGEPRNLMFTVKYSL

Target: T1, FpvB R648C (Pseudomonas aeruginosa, UniProt A0A0H2ZFZ5, R648C)
T1 sequence (A0A0H2ZFZ5 23-802 R648C): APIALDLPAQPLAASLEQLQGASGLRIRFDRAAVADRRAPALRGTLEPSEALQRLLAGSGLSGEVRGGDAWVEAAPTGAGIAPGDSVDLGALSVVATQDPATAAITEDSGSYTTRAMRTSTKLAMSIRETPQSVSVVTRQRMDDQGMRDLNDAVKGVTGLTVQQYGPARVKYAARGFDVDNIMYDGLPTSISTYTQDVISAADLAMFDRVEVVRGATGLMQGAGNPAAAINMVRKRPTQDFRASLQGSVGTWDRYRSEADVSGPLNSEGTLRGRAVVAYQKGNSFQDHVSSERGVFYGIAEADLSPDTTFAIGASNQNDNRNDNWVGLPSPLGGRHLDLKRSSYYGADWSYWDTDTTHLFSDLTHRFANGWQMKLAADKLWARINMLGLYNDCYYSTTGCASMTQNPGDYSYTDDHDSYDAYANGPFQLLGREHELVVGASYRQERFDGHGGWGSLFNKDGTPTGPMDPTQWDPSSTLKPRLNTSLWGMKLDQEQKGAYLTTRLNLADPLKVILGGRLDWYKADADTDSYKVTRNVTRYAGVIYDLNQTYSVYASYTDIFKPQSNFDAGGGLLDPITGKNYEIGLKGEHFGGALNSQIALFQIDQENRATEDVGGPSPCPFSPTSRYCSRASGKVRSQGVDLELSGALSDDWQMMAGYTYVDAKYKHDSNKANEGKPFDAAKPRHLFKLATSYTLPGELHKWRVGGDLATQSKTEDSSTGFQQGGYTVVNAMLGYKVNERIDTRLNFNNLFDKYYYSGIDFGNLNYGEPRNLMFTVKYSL
Assay: Whole-cell fluorescence quenching, FpvB R648C in ΔfpvA ΔfpvB
Type: binding
Conditions: greater than ferrichrome
Source text: To determine the affinity of the siderophores for FpvA and FpvB, we adapted the method from Chakravorty et al. to generate a whole-cell sensor where fluorescence quenching serves as an indicator of ligand interaction ([31]). Siderophore binding triggers conformational changes at the extracellular loops of the TBDT (Fig. 3A). Cys substitutions were introduced at the loops and labeled with a fluorescent maleimide dye. When a ligand binds the transporter, the loops fold inward toward the lumen of the barrel, and changes in the chemical environment surrounding the fluorophore lead to quenching ([31], [32]). Fluorescence recovery occurs once the siderophore is taken up and the loop returns to its original conformation.
Cells were cultured overnight in LB with carbenicillin (200 μg/mL) at 37°C with shaking at 200 rpm. […] For fluorescence recovery assays, cells were incubated with 1× PBS plus 0.4% glucose at 37°C with shaking at 200 rpm. […] Cells were spun down and washed 3× with 1× PBS and resuspended in 1× PBS for quenching assays and 1× PBS plus 0.4% glucose for fluorescence recovery assays.
For fluorescence quenching and recovery assays, cells were diluted to an OD600 of 0.1 for both types of assays, and 148 μL was added into wells of a 96-well black plate (Corning). Fluorescence was recorded for 5 min at 1-min intervals at 37°C (BioTek Neo; excitation, 494 nm; emission, 520 nm). […]

Compound: CC(=O)N(O)CCCCCNC(=O)CCC(=O)N(O)CCCCCNC(=O)CCC(=O)N(O)CCCCCN [ferrioxamine B]
- Kd for FpvB relative to ferrichrome: approximately 10 fold
